Compound activity from PubChem BioAssay.
The list is not random: actives were taken first. Their share in the collection is about 2.3%.
Mito fusion act: mitochondrial division inhibition or fusion activation; S. cerevisiae fusion-defective mutant growth rescue, CellTiterGlo 48 h; Potency, µM (top dose mostly 46.1 µM), for the others: at the highest dose growth rescue (activation), actives largely listed as activators; 0.23% of 320,000 active; AID 485298; also: potency is read from the fitted curve at half-maximal effect; % of control where 0% means no effect; nearly all actives have a fitted effect of over 45% in size
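Read-out: ATP-based luminescence (CellTiterGlo, 10 min ambient) reporting growth of fusion-defective ts yeast after 48 hours at 37C on glycerol/ethanol YPEG medium in the presence of compound.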
miR-21 reporter: raises the signal of a miR-21 reporter. HeLa miR-21 FLuc reporter, luciferase, 48 h. 340,000 tested, under 10 active. Potency, µM (highest dose often 38.3 µM), for the others: at the highest dose reporter change, positive = more light; active = well fitted rising curve with a large enough effect; inconclusive = small, poorly fitted or top-dose-only effect; inactive = no such curve, though single readings can be large or run the other way;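 note: % of control where 0% means no effect; miR-21 action dims this reporter so a rising signal means less miR-21 action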
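HeLa miR-21-FLuc reporter line, endogenous miR-21; 2000 cells/well in DMEM/10% FBS; compound titration up to ~40uM final, 48 h, 37 degree Celsius; luciferase detection reagent, 15 min lysis, CCD luminescence.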
Nrf2 block: inhibitors of Nrf2 signaling. A549 ARE-Fluc reporter, luciferase luminescence, 18-24 h. Potency, µM (series often up to 46 µM), for the others: at the highest dose activity change, negative = inhibition, actives largely listed as inhibitors. 2.1% of 360,000 active. AID 504444; also: potency is read from the fitted curve at half-maximal effect; % is scaled to controls: 0 for no effect and ±100 for the full control effect; nearly all actives have a fitted effect of over 60% in size
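Cells were seeded and rested 2 h, then exposed to compounds for 18-24 h. CellTiter-Fluor was read first as a viability measure. BugLite was added 15 min before the final luminescent read of ARE-luciferase activity in A549 cells.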
Nrf2 ARE act: activates Nrf2 signaling. AREc32 ARE-luciferase reporter (MCF7-derived line), luminescence, 24 h. Potency, µM (doses to about 46.1 µM), for inactives: top-dose activation, actives largely listed as activators. 0.31% of 410,000 active. AID 624171; also: potency is read from the fitted curve at half-maximal effect; % of control where 0% means no effect; nearly all actives have a fitted effect of over 65% in size
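Reporter line AREc32 (ARE-Fluc), seeded overnight in OPTI-MEM with 5% FBS; compound pin-transferred, 24 hr at 37 deg C, 5% CO2; luminescent read-out.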
Glioma ERSR ind: inducers of ER stress response in human glioma cells; U87-MG GRP78 promoter luciferase reporter, 16 h; Potency, µM, without a hit: at the highest dose activation, actives largely listed as activators; 0.02% of 420,000 active; also: potency is read from the fitted curve at half-maximal effect; series mostly up to about 76 µM; % of control where 0% means no effect; nearly all actives have a fitted effect of over 35% in size
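Stably transfected U87-MG glioma cells carrying a GRP78-based luciferase sensor; 16 h compound incubation. Luminescence end-point read 10 min after Bright-Glo addition at room temperature.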
A549 tox-1: A549 cytotoxicity, counter-screen for Nrf2 inhibitors; 0.16% of 390,000 active; A549 ARE-Fluc cells, CellTiter-Fluor viability, 18-24 h; Potency, µM (titrated, usually from 46 µM), without a hit: at the top dose activity change, negative = cytotoxicity, most hits filed as inhibitors; also: potency is read from the fitted curve at half-maximal effect; % is scaled to controls: 0 for no effect and ±100 for the full control effect
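Cytotoxicity counterscreen: CellTiter-Fluor fluorescence was measured in A549 ARE_Fluc cells after 18-24 h of compound exposure in a concentration series. The subsequent BugLite luminescent read reports ARE-luciferase activity.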
FLuc enzyme inh: firefly luciferase inhibition, Nrf2 hit validation; shares compounds with Nrf2 block; purified firefly luciferase, luminescence inhibition; Potency, µM (titrated, usually from 57.5 µM), for the others: at the top dose activity change, negative = inhibition, actives largely listed as inhibitors; 4% of 1,400 active; also: potency is read from the fitted curve at half-maximal effect; % is scaled to controls: 0 for no effect and ±100 for the full control effect; nearly all actives have a fitted effect of over 65% in size
A549 tox-2: A549 cytotoxicity, Nrf2 inhibitor counterscreen | Potency, µM (series often up to 46.1 µM), inactives show at the top dose activity change, negative = cytotoxicity, most hits filed as inhibitors | 2% of 1,400 active | shares compounds with Nrf2 block | AID 720523 | A549 ARE-Fluc cells, cytotoxicity counterscreen;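 also: potency is read from the fitted curve at half-maximal effect; cells exposed to compounds for 18 to 24 hours; % is scaled to controls: 0 for no effect and ±100 for the full control effect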
Nrf2 ARE inh: reduces Nrf2 ARE reporter signal in A549 cells; Potency, µM (doses to about 46.1 µM), for inactives: at the highest dose activity change, negative = inhibition, actives largely listed as inhibitors; AID 720524; A549 ARE-firefly luciferase reporter, luminescence; shares compounds with Nrf2 block; 74% of 1,400 active; also: potency is read from the fitted curve at half-maximal effect; % is scaled to controls: 0 for no effect and ±100 for the full control effect; nearly all actives have a fitted effect of over 65% in size
Active calls of the source: *. Unless noted, calls follow the shape of the dose curve; as a rule, active = well fitted curve in the direction sought with a large enough effect; inconclusive = small, poorly fitted or top-dose-only effect, or another doubt; inactive = no such curve, though single readings can be large; an effect the other way counts as inactive or inconclusive.

Screening CCOc1ccc(NC(=O)c2oc3ccccc3c2NC(=O)c2c(F)cccc2F)cc1 returned miR-21 reporter -4%, Nrf2 block -7%, Nrf2 ARE act 0%, Glioma ERSR ind -3% and A549 tox-1 0%.
For CCc1ccc(NC(=O)CSc2ccc(-c3cccs3)nn2)cc1 the results were miR-21 reporter 0%, Nrf2 block -23%, Nrf2 ARE act 4%, Glioma ERSR ind -2% and A549 tox-1 8%.
Screening c1ccc(CN2CCC(Nc3nc(-c4ccccc4)nc4ccccc34)CC2)cc1 returned Mito fusion act 6%, miR-21 reporter inconclusive, Nrf2 block inconclusive, Nrf2 ARE act -1%, Glioma ERSR ind -16% and A549 tox-1 inconclusive.
`Cc1csc2ncnc(NC3CCN(Cc4ccccc4)CC3)c12` gave Mito fusion act -1%, miR-21 reporter 23%, Nrf2 block 9.2µM*, Nrf2 ARE act 4%, Glioma ERSR ind -3%, A549 tox-1 -2%, FLuc enzyme inh -2%, A549 tox-2 -9% and Nrf2 ARE inh 4.1µM*.
For O=C(CN1c2cccc3cccc(c23)S1(=O)=O)N1CCOCC1 the results were Mito fusion act 6%, miR-21 reporter -5%, Nrf2 block -27%, Nrf2 ARE act 0%, Glioma ERSR ind -4% and A549 tox-1 3%.
For COc1c(C)cc(C(=O)C2CCCN(C(=O)Cn3ccc(C)n3)C2)cc1C (configuration not stated) the results were Mito fusion act 2%, miR-21 reporter -7%, Nrf2 block inconclusive, Nrf2 ARE act 0%, Glioma ERSR ind -3% and A549 tox-1 1%.
Screening CCc1ccccc1-n1nnc(-c2nsc(NC(=O)c3ccc(C)c(C)c3)n2)c1C returned miR-21 reporter inconclusive, Nrf2 block 8.2µM*, Nrf2 ARE act -1%, Glioma ERSR ind -3%, A549 tox-1 -4%, FLuc enzyme inh -14%, A549 tox-2 -21% and Nrf2 ARE inh 21µM*.
`CCC1CN(C(=O)N2CCC(C(=O)O)CC2)c2cc(C)ccc2O1` (configuration not stated) gave miR-21 reporter 1%, Nrf2 block 4%, Nrf2 ARE act 0%, Glioma ERSR ind -2% and A549 tox-1 -14%.
For CCC(C)N1CCC2(CC1)N=c1c(c3c4c5c(C)c(O)c3c(O)c1=NC(=O)C(C)=CC=C[C@H](C)[C@H](O)[C@@H](C)[C@@H](O)[C@@H](C)[C@H](OC(C)=O)[C@H](C)[C@@H](OC)C=CO[C@@](C)(O5)C4=O)N2 (some centres not stated) the results were Mito fusion act 0%, Nrf2 block 8.2µM*, Nrf2 ARE act -1%, Glioma ERSR ind -3%, A549 tox-1 inconclusive, FLuc enzyme inh -14%, A549 tox-2 inconclusive and Nrf2 ARE inh inconclusive.
`COc1ccc(-c2cc(C(=O)Oc3cccc(C)c3)c3cc(C)ccc3n2)cc1` gave miR-21 reporter 0%, Nrf2 block inconclusive, Nrf2 ARE act 1%, Glioma ERSR ind -3% and A549 tox-1 7%.
Screening CCOc1cccc(CN2CCC(n3nccc3NC(=O)C3CC3)CC2)c1O returned Mito fusion act 1%, miR-21 reporter -5%, Nrf2 block 3%, Nrf2 ARE act 0%, Glioma ERSR ind -2% and A549 tox-1 1%.
CC(C)CCCCCCCCCCCCC(=O)NCC(=O)NC1C(O)C(O)C(Nc2ncnc3nc[nH]c23)OC1C(O)CO (configuration not stated) was read as Nrf2 block 0.058µM*, Nrf2 ARE act 0%, Glioma ERSR ind -8%, A549 tox-1 0.73µM*, FLuc enzyme inh 0%, A549 tox-2 inconclusive and Nrf2 ARE inh 0.013µM*.
COc1ccc(CNC(=O)Cc2c(C)c3cc4c(C)coc4cc3oc2=O)cc1OC was read as miR-21 reporter 7%, Nrf2 block -31%, Nrf2 ARE act -1%, Glioma ERSR ind 1% and A549 tox-1 -13%.
`Cc1ccc(C)c(NC(=O)CCCn2c(C)c3cnn(-c4ccccc4)c(=O)c3c2C)c1` gave miR-21 reporter 22%, Nrf2 block -4%, Nrf2 ARE act 7%, Glioma ERSR ind 0% and A549 tox-1 4%.
CC(=O)N(C)C1=C(N2CCOCC2)C(=O)c2ccccc2C1=O was read as Mito fusion act -18%, miR-21 reporter 29%, Nrf2 block 0.46µM*, Nrf2 ARE act -2%, Glioma ERSR ind -16%, A549 tox-1 8.2µM*, FLuc enzyme inh -20%, A549 tox-2 16µM* and Nrf2 ARE inh 5.8µM*.
Screening Clc1ccc(-c2nc3cc(CN4CCCCC4)ccc3o2)cc1 returned Mito fusion act 26%, miR-21 reporter -36%, Nrf2 block inconclusive, Nrf2 ARE act 2%, Glioma ERSR ind 6% and A549 tox-1 1%.
Screening O=S(=O)(c1ccc(-c2csc(=Nc3ccc(OC(F)(F)Cl)cc3)n2CCCO)cc1)N1CCCC1 returned miR-21 reporter inconclusive, Nrf2 block 6.5µM*, Nrf2 ARE act -3%, Glioma ERSR ind -5%, A549 tox-1 inconclusive, FLuc enzyme inh -7%, A549 tox-2 inconclusive and Nrf2 ARE inh 7.3µM*.
Screening OCCCn1c(-c2ccccc2)csc1=Nc1ccccc1 returned Mito fusion act -4%, miR-21 reporter -1%, Nrf2 block -17%, Nrf2 ARE act 7%, Glioma ERSR ind 1% and A549 tox-1 5%.
Cn1c(-c2ccc(S(=O)(=O)N3CCCC3)cc2)csc1=Nc1ccc(Cl)c(Cl)c1 was read as miR-21 reporter 9%, Nrf2 block 3.3µM*, Nrf2 ARE act -1%, Glioma ERSR ind -2%, A549 tox-1 -5%, FLuc enzyme inh inconclusive, A549 tox-2 -13% and Nrf2 ARE inh 6.5µM*.

Not a retest: entries from further up.
Screening CCOc1cccc(CN2CCC(n3nccc3NC(=O)C3CC3)CC2)c1O returned Mito fusion act 1%, miR-21 reporter -5%, Nrf2 block 3%, Nrf2 ARE act 0%, Glioma ERSR ind -2% and A549 tox-1 1%.
CC(C)CCCCCCCCCCCCC(=O)NCC(=O)NC1C(O)C(O)C(Nc2ncnc3nc[nH]c23)OC1C(O)CO (configuration not stated) was read as Nrf2 block 0.058µM*, Nrf2 ARE act 0%, Glioma ERSR ind -8%, A549 tox-1 0.73µM*, FLuc enzyme inh 0%, A549 tox-2 inconclusive and Nrf2 ARE inh 0.013µM*.
COc1ccc(CNC(=O)Cc2c(C)c3cc4c(C)coc4cc3oc2=O)cc1OC was read as miR-21 reporter 7%, Nrf2 block -31%, Nrf2 ARE act -1%, Glioma ERSR ind 1% and A549 tox-1 -13%.
